Structures are written as SMILES. Only a part is listed here, and it is no random draw. Some results for these compounds are left out of this collection, so the calls shown say nothing about other tests. The source made the active and inactive calls. Rule as the data show it: active = growth rescue above about 28% (passing the limit was not always enough); inconclusive = no clear call, values can overlap the other calls.

Among the data in PubChem BioAssay AID504582 (Broad Institute, 2011) are growth rescue values, retold here.

This assay in a line: rescue of yeast from PfHsp40 toxicity, primary screen, S. cerevisiae, ATP luminescence (AID 504582).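 Also: yeast W303a lacking pdr1 and pdr3 grown in galactose medium; growth measured after three days at 30 °C.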 Conditions: S. cerevisiae expressing PfHsp40, growth rescue, at 12.5 µM, active compounds read high.
As to `O=C(OC1CN2CCC1CC2)C(CO)(c1ccccc1)c1ccccc1` (centres undefined), the growth rescue is inactive: 0.462%.
For the compound `CN(C)c1cccc(C(=O)NCC2(N(C)C)CCCCC2)c1`, the growth rescue was inactive: -0.928%.
Then `O=C(OCCN1CCCC1)C(O)(c1ccccc1)c1ccccc1`, with inactive: -0.802%; and `CC(C)Oc1ccc(C(=O)NCC2(N(C)C)CCCCC2)cc1`, with inactive: -1.14%.
Then `COc1ccc(Br)c(C(=O)NCC2(N3CCCCC3)CCCCC2)c1`, with inactive: -0.253%.
In the case of `COc1cc(C(=O)NCC2(N(C)C)CCCCC2)c([N+](=O)[O-])cc1OC`, the growth rescue was inactive: -2.17%.
With `CN(C)C1(CNC(=O)c2ccc(Br)cc2)CCCCC1`, the growth rescue is inactive: 3.96%.
As to `O=C(NCC1(N2CCCCC2)CCCCC1)c1cccc(Cl)c1`, the growth rescue was inactive: -0.819%.
Under `COc1ccc(Cl)cc1C(=O)NCC1(N(C)C)CCCCC1` stands inactive: -1.96%; under `COc1cccc(C(=O)NCC2(N3CCCCC3)CCCCC2)c1`, inactive: -0.174%.
In the case of `CN(C)c1ccc(C(=O)NCC2(N(C)C)CCCCC2)cc1`, the growth rescue is inactive: 1.76%.
Then `CN(C)C1CCCC1OC(=O)C(O)(c1ccccc1)c1ccccc1` (centres undefined), with inactive: -1.57%; and `Cc1ccccc1C(=O)NCC1(N2CCCCC2)CCCCC1`, with inactive: -1.32%.
Under `O=C(NCC1(N2CCCCC2)CCCCC1)c1cccc(Br)c1` stands inactive: -0.421%.
With `CCN1CCCC(OC(=O)C2(O)c3ccccc3C=Cc3ccccc32)C1` (centres undefined), the growth rescue is inactive: 0.759%.
Turning to `Cc1cc(C(=O)NCC2(N3CCCCC3)CCCCC2)ccc1[N+](=O)[O-]`, the growth rescue was inactive: -0.88%.
Consider `COc1ccc(C(=O)NCC2(N(C)C)CCCCC2)cc1`, for which the growth rescue was inactive: 1.69%.
Then `O=C(NCC1(N2CCCCC2)CCCCC1)c1cc(F)c(F)cc1Cl`, with inactive: 1.55%.
In the case of `C=CCN1CCN(CCOC(=O)C(O)(c2ccccc2)c2ccccc2)CC1`, the growth rescue was inactive: 0.314%.
For the compound `O=C(NCC1(N2CCCCC2)CCCCC1)c1cc([N+](=O)[O-])ccc1Cl`, the growth rescue was inactive: -1.49%.
Take `Cc1ccc(C(=O)NCC2(N3CCCCC3)CCCCC2)cc1`: the growth rescue is inactive: 0.353%.
With `CC(C)N1C(=O)CC2(CCN(CCOC(=O)C(O)(c3ccccc3)c3ccccc3)CC2)C1=O`, the growth rescue was inactive: -0.411%.
Under `COc1cc(SC)ccc1C(=O)NCC1(N(C)C)CCCCC1` stands inactive: -0.084%; under `CCN(CC)CC(C)C(C)OC(=O)C(O)(c1ccccc1)c1ccccc1` (centres undefined), inactive: 1.56%.
